Source: ChEMBL document CHEMBL5214900, “Design, Synthesis, and Biological Evaluation of Membrane-Active Bakuchiol Derivatives as Effective Broad-Spectrum Antibacterial Agents” (J Med Chem, 2021)
≈ marks a conversion by molar mass, not a printed value.

Tests used:
Staphylococcus aureus [1] = experiment: Antibacterial activity against methicillin-resistant Staphylococcus aureus N315 assessed as inhibition of bacterial growth incubated for 24 hrs by CLSI based broth dilution method; assay type: functional
Staphylococcus aureus [2] = experiment: Antibacterial activity against methicillin-resistant Staphylococcus aureus NCTC10442 assessed as inhibition of bacterial growth incubated for 24 hrs by CLSI based broth dilution method; assay type: functional
[3] = Hemolytic activity in rabbit RBC measured after 1 hrs by multimode reader assay; assay type: toxicity, cell-based, Oryctolagus cuniculus, Erythrocyte; conditions: rabbit red blood cells (erythrocytes)
Pseudomonas aeruginosa = experiment: Antibacterial activity against Pseudomonas aeruginosa ATCC 9027 assessed as inhibition of bacterial growth incubated for 24 hrs by CLSI based broth dilution method; assay type: functional
Staphylococcus aureus [4] = experiment: Antibacterial activity against Staphylococcus aureus ATCC 29213 assessed as inhibition of bacterial growth incubated for 24 hrs by CLSI based broth dilution method; assay type: functional
Escherichia coli = experiment: Antibacterial activity against Escherichia coli ATCC 25922 assessed as inhibition of bacterial growth incubated for 24 hrs by CLSI based broth dilution method; assay type: functional

CC[C@H](C)[C@H](NC(=O)CN)C(=O)NCC(=O)N[C@@H](C)C(=O)N[C@H](C(=O)N[C@@H](CC(C)C)C(=O)N[C@@H](CCCCN)C(=O)N[C@H](C(=O)N[C@@H](CC(C)C)C(=O)N[C@H](C(=O)N[C@H](C(=O)NCC(=O)N[C@@H](CC(C)C)C(=O)N1CCC[C@H]1C(=O)N[C@@H](C)C(=O)N[C@@H](CC(C)C)C(=O)N[C@H](C(=O)N[C@@H](CO)C(=O)N[C@@H](Cc1c[nH]c2ccccc12)C(=O)N[C@H](C(=O)N[C@@H](CCCCN)C(=O)N[C@@H](CCCNC(=N)N)C(=O)N[C@@H](CCCCN)C(=O)N[C@@H](CCCNC(=N)N)C(=O)N[C@@H](CCC(N)=O)C(=O)N[C@@H](CCC(N)=O)C(N)=O)[C@@H](C)CC)[C@@H](C)CC)[C@@H](C)O)[C@@H](C)O)C(C)C)C(C)C [MELITTIN]
MIC (Staphylococcus aureus [1]): 3.12 µg/mL (≈ 1.1 µM) | MIC (Staphylococcus aureus [2]): 3.12 µg/mL (≈ 1.1 µM) | HC50 at 1 h [3]: 23.4 µg/mL | MIC (Pseudomonas aeruginosa): 3.12 µg/mL (≈ 1.1 µM) | MIC (Staphylococcus aureus [4]): 3.12 µg/mL (≈ 1.1 µM) | MIC (Escherichia coli): 3.12 µg/mL (≈ 1.1 µM)
